Columns and labels:
hCDK1/B = hCDK1/B (Homo sapiens, UniProt P06493); assay: hCDK1/B; assay type: biochemical; conditions: read-out: hCDK1/B/IC50 [umol l − 1]; Table E
[1] = target: CDK2/Cyclin-A kinase complex (Homo sapiens, UniProt P24941); assay: CDK2 IMAP fluorescence polarization assay; conditions: read-out: CDK2cyA IMAP/IC50 [umol l − 1]; Table E
Description: In order to test the CDK2 activity of the compounds of the invention, the CDK2 assay is a fluorescence polarization assay, where the enzyme is a purified active CDK2/Cyclin-A kinase complex and the substrate is a synthesized peptide derived from Histone H1. This assay utilizes the IMAP technology from Molecular Devices. The active CDK2/Cyclin-A complex phosphorylates the peptide substrate, which is conjugated with the TAMRA tag. The phosphorylated site is then recognized by a metal containing molecule that interacts with the TAMRA tag to induce a high fluorescence polarization. The compounds that inhibit the CDK2 kinase activity would inhibit the fluorescence output of the assay.

Chains of the proteins cited; added tags and fusions are not shown.
UniProt P06493, whole entry: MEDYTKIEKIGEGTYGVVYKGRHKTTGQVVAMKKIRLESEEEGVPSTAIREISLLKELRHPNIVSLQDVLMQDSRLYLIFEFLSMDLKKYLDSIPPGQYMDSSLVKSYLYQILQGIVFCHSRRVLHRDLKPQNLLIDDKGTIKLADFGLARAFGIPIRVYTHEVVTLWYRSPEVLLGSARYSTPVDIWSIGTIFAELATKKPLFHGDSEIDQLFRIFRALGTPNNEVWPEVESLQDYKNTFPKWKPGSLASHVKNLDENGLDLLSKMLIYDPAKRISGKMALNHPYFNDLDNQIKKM
UniProt P11802, whole entry: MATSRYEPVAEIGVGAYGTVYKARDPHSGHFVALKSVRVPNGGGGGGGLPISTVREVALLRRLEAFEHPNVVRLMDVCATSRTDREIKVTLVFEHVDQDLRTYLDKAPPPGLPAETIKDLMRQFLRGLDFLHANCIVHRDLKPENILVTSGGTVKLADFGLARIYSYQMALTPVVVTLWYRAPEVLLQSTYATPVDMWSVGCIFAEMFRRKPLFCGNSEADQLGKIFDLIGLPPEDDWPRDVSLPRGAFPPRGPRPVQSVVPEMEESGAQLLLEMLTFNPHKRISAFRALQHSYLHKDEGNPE
UniProt P14635, whole entry partner: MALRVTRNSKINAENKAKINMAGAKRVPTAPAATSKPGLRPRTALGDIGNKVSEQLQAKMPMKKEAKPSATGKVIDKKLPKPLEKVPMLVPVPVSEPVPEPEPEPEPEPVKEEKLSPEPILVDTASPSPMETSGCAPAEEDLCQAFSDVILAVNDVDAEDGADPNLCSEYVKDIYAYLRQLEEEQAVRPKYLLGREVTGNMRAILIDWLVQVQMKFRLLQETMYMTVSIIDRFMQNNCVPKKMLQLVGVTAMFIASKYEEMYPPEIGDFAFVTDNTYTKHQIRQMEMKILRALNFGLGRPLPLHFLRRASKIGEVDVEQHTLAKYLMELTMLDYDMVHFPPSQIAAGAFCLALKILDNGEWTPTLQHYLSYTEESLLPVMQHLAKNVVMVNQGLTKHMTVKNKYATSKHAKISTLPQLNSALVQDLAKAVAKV
UniProt P24385, whole entry partner: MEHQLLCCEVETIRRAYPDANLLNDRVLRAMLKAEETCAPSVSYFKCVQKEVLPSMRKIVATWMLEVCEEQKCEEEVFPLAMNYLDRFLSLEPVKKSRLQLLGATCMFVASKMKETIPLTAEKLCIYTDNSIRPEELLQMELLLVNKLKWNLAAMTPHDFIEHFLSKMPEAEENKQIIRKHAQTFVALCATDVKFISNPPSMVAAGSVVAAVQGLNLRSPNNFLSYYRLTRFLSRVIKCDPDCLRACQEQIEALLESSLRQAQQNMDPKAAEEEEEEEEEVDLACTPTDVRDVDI

[2] = target: CDK4/Cyclin-D1 kinase complex (Homo sapiens, UniProt P11802); assay: CDK4 ELISA based assay, Rb phosphorylation at Serine780; conditions: read-out: CDK4 ELISA assay IC50 [umol l−]; Table E

CCC(CC)n1c(C(=O)Nc2ccccc2)cc2cnc(Nc3ccc(N4CCNCC4)cc3)nc21
IC50 (hCDK1/B): < 1 µM

Cc1nnc(-c2c(C)c3cnc(Nc4ccc(N5CCNCC5)cn4)nc3n2C2CCCC2)o1
IC50 [1]: > 10 µM

Cc1c(-c2cnco2)n(C2CCCC2)c2nc(Nc3ccc(N4CCNCC4)cn3)ncc12 [399A]
IC50 (hCDK1/B): < 10 µM

Cc1cn(C2CCC(O)C2)c2nc(Nc3ccc(CN4CCOCC4)cc3)ncc12 (centres unmarked)
IC50 [1]: < 10 µM

Cc1c(-c2cnco2)n(C2CCCC2)c2nc(Nc3ccc(N4CCNCC4)cn3)ncc12 [399C]
IC50 (hCDK1/B): < 10 µM | IC50 [1]: > 15 µM

CCC(CC)n1ccc2cnc(Nc3ccc(N4CCN(C(C)=O)CC4)cc3)nc21
IC50 [1]: < 1 µM | IC50 [2]: < 10 µM

— patent US8324225B2, “Pyrrolopyrimidine compounds and their uses” (Novartis AG, priority 2006, dated 2012)
